In assay [1] the test system is Geo colon cancer xenograft. Kind of assay: In vivo antitumor testing, colon cancer xenograft model. As to conditions: Geo sc xenograft in nude mice; 1 mg/mouse q3d X 10, 14, ip. As to the method:
(§1) Tumors were propagated in nude mice as subcutaneous (sc) transplants using tumor fragments obtained from donor mice. Tumor passage occurred approximately every two to four weeks. Tumors were then allowed to grow to the pre-determined size window (usually between 100-200 mg, tumors outside the range were excluded) and animals were evenly distributed to various treatment and control groups. Animals were treated with C225 (1 mg/mouse q3d X 10, 14, ip). Treated animals were checked daily for treatment related toxicity/mortality. Each group of animals was weighed before the initiation of treatment (Wt1) and then again following the last treatment dose (Wt2). The difference in body weight (Wt2-Wt1) provided a measure of treatment-related toxicity. Tumor response was determined by measurement of tumors with a caliper twice a week, until the tumors reached a predetermined target size of 1 gm or became necrotic. […]
(§2) Antitumor activity was determined in terms of primary tumor growth inhibition. This was determined in two ways: (i) calculating the relative median tumor weight (MTW) of treated (T) and control (C) mice at various time points (effects were expressed as % T/C); and (ii) calculating the tumor growth delay (T-C value), defined as the difference in time (days) required for the treated tumors (T) to reach a predetermined target size compared to those of the control group (C). […]

Assay [2] has as its system HT29 colon cancer xenograft. Described as above. As to conditions: HT29 sc xenograft in nude mice; 1 mg/mouse q3d X 10, 14, ip. As to the method: as §1, §2

Consider cetuximab, for which the results for the “efficacy in colon cancer xenograft model (sensitive or resistant)” value in assay [1] and in assay [2] were “sensitive” and “resistant”, respectively.

The values are drawn from patent US20100190150A1, “Biomarkers and methods for determining sensitivity to epidermal growth factor receptor modulators” (BRISTOL-MYERS SQUIBB COMPANY, priority 2004, published 2010).
